Sequences of proteins named here, by UniProt entry; tags and fusion partners are left off.
UniProt P31323, whole entry, looked up: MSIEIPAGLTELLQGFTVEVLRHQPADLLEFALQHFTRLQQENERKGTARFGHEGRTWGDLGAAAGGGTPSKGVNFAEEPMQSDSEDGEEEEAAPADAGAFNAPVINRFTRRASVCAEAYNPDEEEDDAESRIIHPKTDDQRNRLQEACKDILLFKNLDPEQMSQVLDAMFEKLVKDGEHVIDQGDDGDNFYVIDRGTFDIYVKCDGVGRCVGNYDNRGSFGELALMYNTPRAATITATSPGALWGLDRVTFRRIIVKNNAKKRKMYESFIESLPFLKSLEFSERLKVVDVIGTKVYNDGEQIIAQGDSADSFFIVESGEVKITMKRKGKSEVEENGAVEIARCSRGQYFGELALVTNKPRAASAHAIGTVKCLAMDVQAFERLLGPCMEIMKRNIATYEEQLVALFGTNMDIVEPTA

Only a part is listed here, and it is no random draw. Some salts and complexes are drawn in separate pieces, as the source files them; their charges need not balance. The source made the active and inactive calls.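 How the source made its calls: active means activation above a cutoff set at the mean over all compounds plus 3 SD (cut at about 18% in these data); inactive means the rest.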
What follows are molecules tested against cAMP-dependent protein kinase catalytic subunit beta (Homo sapiens) + cAMP-dependent protein kinase type II-beta regulatory subunit (Homo sapiens) (UniProt P22694+P31323) (assay: compounds dissociating PKAc from R2B subunit – biochemical, fluorescence polarization, Cy5-IP20, human, primary screen (AID 504700;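 further: higher means more holoenzyme dissociation and a rise in polarization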)). Conditions: PKA-R2B holoenzyme dissociation, at 11.4 µM, hits give high values, 0% DMSO only, 100% 113 µM cGMP, R2B truncated from residue 108, S112A mutant.
With `CCN(CC)CCCOC(=O)C(O)(c1ccccc1)c1ccccc1` the activation was inactive: -4.21%.
With `O=[N+]([O-])c1cc([N+](=O)[O-])c(Nc2cccnc2)c([N+](=O)[O-])c1` the activation was inactive: -6.97%.
For `O=[N+]([O-])c1ccc2c(c1)C=Nc1ccccc1O2`, the activation was inactive: -7.28%.
In the case of `CC(C)(C)c1ccc(OP(C)(=O)Nc2ccc(SC(F)(F)F)cc2)cc1` (centres undefined), the activation was inactive: 7.09%.
With `Cc1cccc(C)c1OP(C)(N)=O` (centres undefined) the activation was inactive: 6.49%.
For `COc1ccccc1OP(C)(=O)Nc1ccc(C)cc1` (centres undefined), the activation was inactive: -5.92%.
With `Cc1ccc(NP(C)(=O)Oc2ccccc2)c(C)c1` (centres undefined) the activation was inactive: -1.27%.
In the case of `CCOC(=O)c1ccc(NP(C)(=O)Oc2ccccc2)cc1` (centres undefined), the activation was inactive: 0.3%.
For `Cc1cc(C)cc(OP(C)(N)=O)c1` (centres undefined), the activation was inactive: 1.86%.
With `COc1ccccc1OP(C)(=O)Nc1cc(Cl)ccc1C` (centres undefined) the activation was inactive: 2.42%.
With `COc1ccc(OP(C)(=O)Nc2cccc(F)c2)cc1` (centres undefined) the activation was inactive: 10.4%.
For `CP(=S)(Nn1cnnc1)Oc1ccccc1` (centres undefined), the activation was inactive: -9.13%.
With `CP(=O)(Nc1ccccc1Br)Oc1ccccc1` (centres undefined) the activation was inactive: 2.99%.
In the case of `COc1ccccc1OP(C)(=O)Nc1ccccc1` (centres undefined), the activation was inactive: -7.93%.
With `Cc1cccc(C)c1OP(C)(=O)Nc1ccc(SC(F)(F)F)cc1` (centres undefined) the activation was inactive: -6.87%.
`Cc1ccc(Nc2c([N+](=O)[O-])cc([N+](=O)[O-])cc2[N+](=O)[O-])cc1` was tested, and the activation was inactive: 1.1%.
In the case of `CP(=O)(Oc1ccccc1)OC(c1ccccc1)C(F)(F)F` (centres undefined), the activation was inactive: -17.8%.
For `CCc1ccc(OP(C)(=O)N2CCN(c3ccc([N+](=O)[O-])cc3)CC2)cc1` (centres undefined), the activation was inactive: -15.5%.
In the case of `CP(=O)(NC(=O)Nc1ccccc1)Oc1ccccc1` (centres undefined), the activation was inactive: -1.5%.
For `Cc1cc(C)cc(OP(C)(=O)Nc2ccc(SC(F)(F)F)cc2)c1` (centres undefined), the activation was inactive: -4.36%.
For `CCOC(=O)c1ccc(NP(C)(=O)Oc2ccc(OC)cc2)cc1` (centres undefined), the activation was inactive: 0.62%.
In the case of `CCOP(C)(=S)SCC(=O)NC(C)C(=O)O` (centres undefined), the activation was inactive: -5.04%.
With `CP(=O)(Nc1ccccn1)Oc1ccc(Cl)cc1` (centres undefined) the activation was inactive: -3.32%.
For `O=[N+]([O-])c1cc([N+](=O)[O-])c(-n2nnc3ccccc32)c([N+](=O)[O-])c1`, the activation was inactive: -11.7%.
For `O=[N+]([O-])c1cc([N+](=O)[O-])c(-c2cnn(-c3ccccc3)c2)c([N+](=O)[O-])c1`, the activation was inactive: -10.8%.
For `Cc1nc2ccc3ccccc3c2s1.O=[N+]([O-])c1cc([N+](=O)[O-])c(O)c([N+](=O)[O-])c1`, the activation was inactive: 8.2%.
With `O=[N+]([O-])c1cc([N+](=O)[O-])c(Nc2nnnn2CCO)c([N+](=O)[O-])c1` the activation was inactive: -3.57%.
In the case of `CC1=C2N=C(C=C3N=C(C(C)=C4[N-][C@@](C)([C@@H]5N=C1[C@](C)(CCC(=O)NC[C@@H](C)OP(=O)([O-])O[C@H]1[C@@H](O)[C@@H](n6cnc7cc(C)c(C)cc76)O[C@@H]1CO)[C@H]5CC(N)=O)[C@@](C)(CC(N)=O)[C@@H]4CCC(N)=O)[C@@](C)(CC(N)=O)[C@@H]3CCC(N)=O)C(C)(C)[C@@H]2CCC(N)=O.[C-]#N.[Co+3]`, the activation was inactive: -5.85%.
`CCOC(=O)C(CC)C1=NC(C)(C)Cc2ccccc21.O=[N+]([O-])c1cc([N+](=O)[O-])c(O)c([N+](=O)[O-])c1` (centres undefined) was tested, and the activation was inactive: -2.67%.
In the case of `COc1ccccc1OP(C)(=O)Nc1c(C)cccc1C` (centres undefined), the activation was inactive: -3.25%.
For `CN1CCCCC1COC(=O)C1(O)c2ccccc2CCc2ccccc21` (centres undefined), the activation was inactive: 5.67%.
In the case of `CP(=O)(Nc1ccc(SC(F)(F)F)cc1)Oc1ccccc1` (centres undefined), the activation was inactive: 13.1%.
With `CCCOc1ccc(NP(C)(=O)Oc2ccc(Cl)cc2)cc1` (centres undefined) the activation was inactive: -0.78%.
In the case of `O=C(O)c1cccc(Nc2c([N+](=O)[O-])cc([N+](=O)[O-])cc2[N+](=O)[O-])c1`, the activation was inactive: -0.76%.
For `CC1=NCCc2c1[nH]c1ccccc21.O=[N+]([O-])c1cc([N+](=O)[O-])c(O)c([N+](=O)[O-])c1`, the activation was inactive: -0.96%.
In the case of `COc1ccccc1OP(C)(=O)Nc1cccc(Br)c1` (centres undefined), the activation was inactive: -1.06%.
For `CCOC(=O)c1ccc(NP(C)(=O)Oc2cc(C)cc(C)c2)cc1` (centres undefined), the activation was inactive: 0.35%.
In the case of `Cc1cc(C)cc(OP(C)(=O)Nc2ccc(C)cc2C)c1` (centres undefined), the activation was inactive: 4.34%.
`Cc1ccc(C)c(NP(C)(=O)Oc2ccccc2)c1` (centres undefined) was tested, and the activation was inactive: -13.8%.
In the case of `CP(=O)(Nc1cccc(Br)c1)Oc1ccccc1` (centres undefined), the activation was inactive: -11.6%.
In the case of `Cc1cc(C)cc(OP(C)(=O)Nc2ccccn2)c1` (centres undefined), the activation was inactive: -3.24%.
`O=[N+]([O-])c1cc([N+](=O)[O-])c(Nc2ccc(Cl)cc2)c([N+](=O)[O-])c1` was tested, and the activation was inactive: 6.4%.
For `CP(=O)(Nc1ccccc1F)Oc1ccccc1` (centres undefined), the activation was inactive: 5.27%.
For `CC(C)c1ccc(OP(C)(=O)Nc2ccc(SC(F)(F)F)cc2)cc1` (centres undefined), the activation was inactive: -19.7%.
For `O=C(OC1CN2CCC1CC2)c1ccc([N+](=O)[O-])cc1` (centres undefined), the activation was inactive: -3.78%.
In the case of `O=C(OCCN1CCN(CCOCc2ccccc2)CC1)C(O)(c1ccccc1)c1ccccc1`, the activation was inactive: 2.34%.
In the case of `COc1ccc2c(c1O)-c1c(O)c(OC)cc3c1[C@H](C2)[N+](C)(C)CC3.O=[N+]([O-])c1cc([N+](=O)[O-])c([O-])c([N+](=O)[O-])c1[O-]`, the activation was inactive: -1.86%.
`CCOC(=O)c1ccc(NP(C)(=O)Oc2ccc(F)cc2)cc1` (centres undefined) was tested, and the activation was inactive: -0.17%.
For `COc1ccc(OP(C)(=O)Nc2ccc(SC(F)(F)F)cc2)cc1` (centres undefined), the activation was inactive: -0.96%.
For `Cc1c([N+](=O)[O-])cc([N+](=O)[O-])c(Br)c1[N+](=O)[O-]`, the activation was inactive: -8.95%.
For `CCN(CC)CCCOC(=O)C(O)(c1ccccc1)C1CCCCC1` (centres undefined), the activation was inactive: 0.48%.
In the case of `CP(=O)(Nc1ccccc1)Oc1ccc(F)cc1` (centres undefined), the activation was inactive: -2.57%.
`CCCCCOc1ccc(NP(C)(=O)Oc2ccc(Cl)cc2Cl)cc1` (centres undefined) was tested, and the activation was inactive: -21.3%.
`O=[N+]([O-])c1cc([N+](=O)[O-])c(OC2CCCCC2O)c([N+](=O)[O-])c1` (centres undefined) was tested, and the activation was inactive: -5.16%.

Source: PubChem BioAssay AID504700 (The Scripps Research Institute Molecular Screening Center, 2011)
